This note sets out measurements from ChEMBL document CHEMBL2331145, “Orvinols with mixed kappa/mu opioid receptor agonist activity” (2013).

By UniProt entry, the sequences of proteins in these tests, tags left out.
UniProt P33535, whole entry: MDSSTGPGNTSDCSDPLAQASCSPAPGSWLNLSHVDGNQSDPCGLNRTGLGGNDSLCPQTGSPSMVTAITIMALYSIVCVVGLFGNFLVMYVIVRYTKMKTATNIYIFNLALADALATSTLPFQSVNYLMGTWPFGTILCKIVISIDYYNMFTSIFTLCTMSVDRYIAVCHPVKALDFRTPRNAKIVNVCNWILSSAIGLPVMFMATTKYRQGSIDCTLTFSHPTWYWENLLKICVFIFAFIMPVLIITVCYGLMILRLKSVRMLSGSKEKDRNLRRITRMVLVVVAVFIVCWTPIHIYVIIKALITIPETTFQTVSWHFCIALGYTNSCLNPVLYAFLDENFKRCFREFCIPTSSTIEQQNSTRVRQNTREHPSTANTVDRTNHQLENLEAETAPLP

This test concerns the target Mu-type opioid receptor (Rattus norvegicus) (UniProt P33535). Nature of the test: Agonist activity at rat recombinant MOR expressed in rat C6 cells assessed as stimulation of [35S]GTPgammaS binding after 1 hr relative to DAMGO.
Take `CO[C@]12CC[C@@]3(C[C@@H]1[C@](C)(O)CCC(C)C)[C@H]1Cc4ccc(O)c5c4[C@@]3(CCN1CC1CC1)[C@H]2O5`: the Activity worked out at 33%. With `CO[C@]12CC[C@@]3(C[C@@H]1[C@](C)(O)Cc1ccccc1)[C@H]1Cc4ccc(O)c5c4[C@@]3(CCN1CC1CC1)[C@H]2O5`, the Activity is 75%. The same measure for `CO[C@]12CC[C@@]3(C[C@@H]1[C@@](C)(O)CCC1CCCCC1)[C@H]1Cc4ccc(O)c5c4[C@@]3(CCN1CC1CC1)[C@H]2O5`: 8.5%; for `CO[C@]12C=C[C@@]3(C[C@@H]1[C@](C)(O)CCC(C)C)[C@H]1Cc4ccc(O)c5c4[C@@]3(CCN1CC1CC1)[C@H]2O5`: 34%. The same measure for `CO[C@]12CC[C@@]3(C[C@@H]1[C@@H](O)CCC1CCCCC1)[C@H]1Cc4ccc(O)c5c4[C@@]3(CCN1CC1CC1)[C@H]2O5`: 34%. Regarding `CO[C@]12CC[C@@]3(C[C@@H]1[C@@H](O)CC1CCCC1)[C@H]1Cc4ccc(O)c5c4[C@@]3(CCN1CC1CC1)[C@H]2O5`, the Activity was 80%. The same measure for `CO[C@]12CC[C@@]3(C[C@@H]1[C@H](O)CCC1CCCCC1)[C@H]1Cc4ccc(O)c5c4[C@@]3(CCN1CC1CC1)[C@H]2O5`: 23%; for `CO[C@]12CC[C@@]3(C[C@@H]1[C@](C)(O)CCC1CCCCC1)[C@H]1Cc4ccc(O)c5c4[C@@]3(CCN1CC1CC1)[C@H]2O5`: 43%.
